The values that follow come from patent US20110165156A1 (published 2011).

The target in assay [1] is human wildtype CSF-1R (wt CSF-1R), full-length, on cells (human, UniProt P07333 20-972). The assay can be described thus: cell-based or functional assay.
Assay [2] has as its target human mutant CSF-1R L301S Y969F, on cells (human, UniProt P07333 20-972). Nature of the assay: cell-based or functional assay.
Assay [3] deals with T1, human CSF-1R fragment delD4 (comprising the extracellular subdomains D1-D3 and D5) (human, UniProt P07333 20-512).
T1 construct: Made from hCSF1R-delD4-V1-PreSc-hFc-His, released from the Fc with PreScission protease; also called hCSF-1R-delD4
Nature of the assay: SPR Biacore T100, 25 C, reference-subtracted signal 10 s after end of injection. (SPR reads the build-up and loss of mass on a sensor chip optically.)

B1: Mab 2E10 (antibody, V domains shown)
VH: QVQLKESGPGLVAPSKSLSITCTVSGSSLDSFDISWIRQSPGKGLEWLGVIWTGGGTNYNSGFMSRLRITKDNSKSQVLLKMNSLQSDDTAIYYCVRDPRLYFDVWGAGTTVTVSS
VL: NIVMTQSPKSMSMSVGERVTLSCKASEDVVTYVSWYQQKPDQSPKLLIYGASNRYTGVPDRFTGSGSATDFTLTISSVQAEDLADYYCGQTFSYPTFGTGTKLEIK
notes: Murine monoclonal antibody from a hybridoma
Consider B1, for which the “wtCSF-1R IC50 (cell viability, 3D culture, CellTiterGlo)” value (“wtCSF-1R IC50” below) in assay [1] is 0.49 µg/mL. Moreover, the “Mutant CSF-1R IC50 (cell viability, 3D culture, CellTiterGlo)” value (shortened to “Mutant CSF-1R IC50”) in assay [2] turned out to be 4.9 µg/mL. Moreover, the “binding signal (RU) before it was set as 0” value (from here on “binding signal”) in assay [3] is -2 RU.

B2: Mab 2F11 (antibody, V domains shown)
VH: QVQLKESGPGLVAPSQSLSITCTVSGFSLTTYDISWIRQSPGKGLEWLGVIWTDGGTNYNSPFMSRLSIRKDNSKSQVFLKMNRLQTDDTAIYYCVRDQRLYFDVWGAGTTVTVSS
VL: NIVMTQSPKSMSMSVGERVTLNCKASEDVNTYVSWYQQQPEQSPKLLIYGASNRYTGVPDRFTGGGSTTDFTLTISSVQAEDLADYFCGQSFSYPTFGTGTKLEIK
notes: Murine monoclonal antibody from a hybridoma; also called <CSF-1R>Mab 2F11; muMab 2F11
In the case of B2, in assay [1], the “wtCSF-1R IC50” value worked out at 1.1 µg/mL. For the same molecule, the “Mutant CSF-1R IC50” value in assay [2] was found to be 8 µg/mL. The “binding signal” value in assay [3] was -3 RU.

B3: Mab 1G10 (antibody, V domains shown)
VH: RVQLKESGPGLVAPSQSLSITCTVSGFSLTSYDISWIRQSPGKGLEWLGVIWSGGGTNYNSPFMSRLRISKDDSRSQVFLKVNRLQTDDTAIYYCVRDLRLYFDVWGAGTTVTVSS
VL: KIVMTQSPKSMSVSVGERVSLSCKASEDVGTYVSWYQQKPEQSPKLLIYGSSNRYTGVPDRFTGSGSATDFTLTISSVQAEDLADYSCGQSFTYPTFGTGTKLEIK
notes: as for B1
As for B3, the “wtCSF-1R IC50” value in assay [1] amounted to 0.29 µg/mL. Moreover, the “Mutant CSF-1R IC50” value in assay [2] is 14.2 µg/mL. For the same molecule, the “binding signal” value in assay [3] is -6 RU.

B4: Mab 2H7 (antibody, V domains shown)
VH: QVQLKESGPGLVAPSKSLSITCTVSGSSLDSFDISWIRQPPGKGLEWLGVIWTGGGTNYNSGFMSRLRISKDNSKSQVFLKMSSLQSDDTAIYYCVRDPRLYFDVWGAGTTVTVSS
VL: NIVMTQSPKSMSMSVGERVTLSCKASEDVVTYVSWYQQKPEQSPKLLIYGASNRYTGVPDRFTGSGSATDFTLTISSIQAEDLADYYCGQTFSYPTFGTGTKLEIK
notes: as for B1
B4: the “wtCSF-1R IC50” value in assay [1] turned out to be 0.31 µg/mL. The “Mutant CSF-1R IC50” value in assay [2] was found to be 5.3 µg/mL. For the same molecule, the “binding signal” value in assay [3] was -9 RU.
